# Columns and labels:
# Type in all cases: cell-based
# [1] = system: breast cancer cells (SK-BR-3); test: Cytotoxicity with serum (CytoTox 96, lactate dehydrogenase release); settings: incubation with serum, LDH release
# Experimental: (§1) SK-BR-3 cells (ATCC) were cultured in McCoy's 5A Medium (Gibco) supplemented with 10% FBS.
# (§2) Cytotoxicity to breast cancer cells following incubation with β-1,6-glucan-conjugated or unconjugated Herceptin and serum was determined by CytoTox 96® Non-Radioactive Cytotoxicity Assay (Promega), which detects lactate dehydrogenase released from lysed cells. For neutrophil-dependent killing, above cells were cultured with neutrophils at 37° C. after which cytotoxicity was measured.
# [2] = system: breast cancer cells (SK-BR-3); test: Antibody binding to breast cancer cells (FACS, anti-human IgG1); settings: SK-BR-3 cells
# Experimental: as §1
# Fluorescence Activated Cell Sorting (FACS) analysis was used to detect Herceptin binding to breast cancer cells (by using anti-human IgG1 antibodies, Sigma) and C3 deposition (by using anti-human C3 antibodies, Accurate Chem.).
# [3] = system: breast cancer cells (SK-BR-3); test: Neutrophil-dependent killing of breast cancer cells; settings: cells cultured with neutrophils at 37° C.
# Experimental: Fresh human blood and serum were provided by Research Blood Components (Brighton, Mass.). Neutrophils were isolated from fresh human blood in accordance with a protocol approved by the MIT Committee on Use of Humans as Experimental Subjects by using Histopaque 1077 and Histopaque 1119 (Sigma).
# as §2
# [4] = system: breast cancer cells (SK-BR-3); test: C3 deposition on opsonized breast cancer cells (FACS, anti-human C3); settings: SK-BR-3 cells opsonized in 40% serum
Substance,cytotoxic effect on the breast cancer cells (complement) [1],binding to breast cancer cells [2],neutrophil killing of the cancer cells [3],C3 deposition on breast cancer cells [4]
unconjugated Herceptin: Herceptin mAb directed against the Her-2/neu protein overexpressed on SK-BR-3 cells [reference compound],lacked any effect,–,–,–
"Herceptin-β-1,6-glucan conjugate: Herceptin (Genentech) conjugated to β-1,6-glucan following oxidation with sodium meta periodate",dose-dependent cytotoxic effect,did not affect its binding to breast cancer cells,increased neutrophil killing,–
"Herceptin conjugated to β-1,3-glucan: Herceptin conjugated to β-1,3-glucan, comparator for C3 deposition",–,–,–,but not
